Experimental data from paper PMC9970268 (Cancer Research Communications, 2022).

Sequences of proteins named here, by UniProt entry; tags and fusion partners are left off.
UniProt P33261, whole entry: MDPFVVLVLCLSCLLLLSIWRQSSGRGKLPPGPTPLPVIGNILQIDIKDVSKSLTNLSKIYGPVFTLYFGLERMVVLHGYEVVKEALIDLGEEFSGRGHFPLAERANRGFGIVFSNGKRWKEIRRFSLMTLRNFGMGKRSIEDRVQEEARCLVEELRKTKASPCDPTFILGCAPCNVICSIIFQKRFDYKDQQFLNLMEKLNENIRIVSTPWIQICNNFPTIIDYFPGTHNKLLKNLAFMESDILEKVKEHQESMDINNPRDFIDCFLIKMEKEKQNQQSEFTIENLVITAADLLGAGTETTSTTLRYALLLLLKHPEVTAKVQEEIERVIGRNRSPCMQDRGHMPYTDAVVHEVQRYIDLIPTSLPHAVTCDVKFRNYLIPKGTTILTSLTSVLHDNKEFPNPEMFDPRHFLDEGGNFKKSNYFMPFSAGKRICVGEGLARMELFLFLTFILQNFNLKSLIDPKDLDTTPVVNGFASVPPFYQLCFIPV

Molecular target: T1, CYP2C19 (Homo sapiens, UniProt P33261)
T1 construct: purchased Promega
Test: CyP450 enzyme assay (P450-Glo)
Type: in vitro ADME
Conditions: recombinant human CYP enzyme, 0.001–100 μmol/L
Description: The assay was carried out using P450-Glo Screening System (Promega). The system contained recombinant human CYP enzyme and P450 reductase (and cytochrome b5 for CYP2C9, 2C19, and 3A4), luminogenic substrates appropriate for each CYP enzyme, a NADPH regeneration system (containing NADP+), and luciferin detection reagent. Control membranes devoid of CYP activity were used as negative controls. Ketoconazole, troglitazone and sulfaphenazole were used as positive controls. These compounds and organic solvents acetonitrile, and DMSO were purchased from Sigma-Aldrich.
First, 12.5 μL of the 4X stock solution of test compounds or positive controls (appropriate for each enzyme) were added to the “treated” wells. For the “untreated” (the values from these wells represent total CYP activity) and “minus-P450 control” wells (the values from these wells represent the CYP-independent background luminescence of the assay), 12.5 μL of vehicle was added. […] Before reading, the plate was incubated at room temperature for 20 minutes to stabilize the luminescent signal. The luminescence was measured using an Infinite F200 plate reader (Tecan). […]

Cc1c(C)c2c(c(C)c1O)CCC(C)(COc1ccc(CC3SC(=O)NC3=O)cc1)O2 (stereo not shown) [Troglitazone, troglitazone, reference compound]
IC50: 3.42 µM
